The source of these data is patent publication US20240150290A1, “HETEROCYCLIC P2Y14 RECEPTOR ANTAGONISTS” (priority 2021, published 2024).

Chains of the proteins cited; added tags and fusions are not shown. Lines headed by an entry give the natural chain unless they say otherwise; changes in a name come on top.
UniProt P05177, whole entry: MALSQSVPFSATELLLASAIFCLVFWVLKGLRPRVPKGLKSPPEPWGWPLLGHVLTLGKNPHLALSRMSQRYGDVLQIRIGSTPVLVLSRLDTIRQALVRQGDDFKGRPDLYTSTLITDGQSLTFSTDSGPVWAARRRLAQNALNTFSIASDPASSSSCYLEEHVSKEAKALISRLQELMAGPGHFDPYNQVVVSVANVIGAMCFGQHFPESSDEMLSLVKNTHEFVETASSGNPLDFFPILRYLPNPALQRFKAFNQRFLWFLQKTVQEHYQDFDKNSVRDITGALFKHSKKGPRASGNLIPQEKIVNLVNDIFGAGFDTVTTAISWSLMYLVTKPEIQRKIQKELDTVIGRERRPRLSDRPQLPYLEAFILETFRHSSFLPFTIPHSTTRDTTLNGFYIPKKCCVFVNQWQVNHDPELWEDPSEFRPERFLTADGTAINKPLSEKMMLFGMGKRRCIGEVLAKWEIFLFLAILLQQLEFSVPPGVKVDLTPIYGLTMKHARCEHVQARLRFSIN
UniProt P08684, whole entry: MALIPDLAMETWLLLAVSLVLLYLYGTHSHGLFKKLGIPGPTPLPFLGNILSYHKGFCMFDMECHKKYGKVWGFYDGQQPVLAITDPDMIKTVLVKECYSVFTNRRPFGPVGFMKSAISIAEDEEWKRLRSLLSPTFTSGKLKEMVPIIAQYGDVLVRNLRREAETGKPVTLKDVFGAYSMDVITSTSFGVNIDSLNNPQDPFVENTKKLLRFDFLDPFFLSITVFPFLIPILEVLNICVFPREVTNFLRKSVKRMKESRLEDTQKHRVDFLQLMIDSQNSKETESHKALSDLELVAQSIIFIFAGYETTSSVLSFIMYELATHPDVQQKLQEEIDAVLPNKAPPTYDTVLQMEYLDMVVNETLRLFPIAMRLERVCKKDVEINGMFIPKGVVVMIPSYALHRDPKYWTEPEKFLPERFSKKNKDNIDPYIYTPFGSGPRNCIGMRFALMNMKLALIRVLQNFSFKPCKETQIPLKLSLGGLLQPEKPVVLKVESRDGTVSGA
UniProt Q12809: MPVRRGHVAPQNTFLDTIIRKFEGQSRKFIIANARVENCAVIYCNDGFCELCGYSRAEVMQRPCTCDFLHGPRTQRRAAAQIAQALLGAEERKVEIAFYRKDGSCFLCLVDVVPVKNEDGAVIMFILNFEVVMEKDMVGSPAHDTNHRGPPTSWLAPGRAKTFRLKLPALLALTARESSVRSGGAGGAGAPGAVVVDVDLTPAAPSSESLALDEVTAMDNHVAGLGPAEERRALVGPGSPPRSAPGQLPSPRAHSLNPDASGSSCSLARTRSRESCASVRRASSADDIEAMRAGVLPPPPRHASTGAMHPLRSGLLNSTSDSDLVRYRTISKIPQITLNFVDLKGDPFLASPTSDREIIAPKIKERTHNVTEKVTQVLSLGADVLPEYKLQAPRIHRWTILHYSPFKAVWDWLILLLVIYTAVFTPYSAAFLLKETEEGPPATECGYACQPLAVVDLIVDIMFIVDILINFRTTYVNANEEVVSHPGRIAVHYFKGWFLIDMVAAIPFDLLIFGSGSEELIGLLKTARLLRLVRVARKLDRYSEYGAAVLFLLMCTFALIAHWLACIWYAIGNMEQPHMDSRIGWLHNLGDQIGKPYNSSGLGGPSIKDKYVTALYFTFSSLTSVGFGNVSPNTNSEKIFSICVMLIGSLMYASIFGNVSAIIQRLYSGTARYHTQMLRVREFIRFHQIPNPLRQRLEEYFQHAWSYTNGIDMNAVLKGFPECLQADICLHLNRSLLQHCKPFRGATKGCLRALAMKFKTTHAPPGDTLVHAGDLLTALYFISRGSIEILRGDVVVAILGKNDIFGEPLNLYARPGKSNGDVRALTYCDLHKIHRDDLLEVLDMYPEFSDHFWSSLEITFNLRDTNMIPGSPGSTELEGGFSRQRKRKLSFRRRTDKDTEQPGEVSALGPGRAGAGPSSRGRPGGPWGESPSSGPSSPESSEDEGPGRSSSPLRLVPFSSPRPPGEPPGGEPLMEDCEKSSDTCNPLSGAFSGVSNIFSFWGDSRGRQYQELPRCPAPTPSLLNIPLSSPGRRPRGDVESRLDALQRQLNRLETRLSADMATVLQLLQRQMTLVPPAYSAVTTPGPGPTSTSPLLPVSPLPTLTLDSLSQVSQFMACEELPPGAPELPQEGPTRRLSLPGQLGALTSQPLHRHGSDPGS

SMILES strings stand for the structures. Read-outs that look alike come from different tables or passages of the source.

The target of one series is T1, hP2Y14R (Homo sapiens, UniProt Q15391).
T1 construct: expressed in transfected cells; host or cells: CHO cells
T1 sequence (Q15391 1-338): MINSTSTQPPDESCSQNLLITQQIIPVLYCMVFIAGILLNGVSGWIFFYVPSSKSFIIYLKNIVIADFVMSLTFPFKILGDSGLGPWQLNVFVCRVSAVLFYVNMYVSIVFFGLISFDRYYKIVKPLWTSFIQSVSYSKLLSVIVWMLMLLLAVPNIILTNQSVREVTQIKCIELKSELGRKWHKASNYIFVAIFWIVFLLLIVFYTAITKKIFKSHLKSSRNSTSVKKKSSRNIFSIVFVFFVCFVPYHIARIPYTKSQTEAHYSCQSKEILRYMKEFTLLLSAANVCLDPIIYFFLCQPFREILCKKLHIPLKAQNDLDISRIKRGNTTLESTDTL
In words: Inhibition of fluorescent antagonist binding in whole hP2Y14R-expressing CHO cells (flow cytometry). In general terms: Flow cytometry measures light scatter and fluorescence of single cells or particles in a stream.

The conditions of series [1]: Table 7; Jung et al. 2020; cited from earlier work.
For series [2] the following is noted: Table 7; Jung et al. 2020; cited from earlier work. The source holds these as a separate data set.
For the next series, the target named is CYP1A2 (Homo sapiens, UniProt P05177). The conditions noted are these: Table 7; Jung et al. 2020; cited from earlier work.
A further series deals with CYP3A4 (Homo sapiens, UniProt P08684). The conditions noted are these: Table 7; Jung et al. 2020; cited from earlier work.
The conditions of series [3]: rat; Table 7; Jung et al. 2020; cited from earlier work.
The next series has as its target hERG (Homo sapiens, UniProt Q12809). The settings on record: fluorescent method; Table 7; Jung et al. 2020; cited from earlier work.
Where [4] appears, read: Table 1, fluorescent antagonist 2, hP2Y14R-CHO cells, 3-4 determinations, read-out: IC50, hP2Y14R (μM, mean ± SEM).

For orientation: IC50 means the midpoint of a concentration-inhibition curve. At hP2Y14R, `O=C(O)c1cc(-c2ccc(C3CCNC3)cc2)c2ccc(-c3ccc(C(F)(F)F)cc3)cc2c1` (racemic) [Compound 105, 4-(4-(Pyrrolidin-3-yl)phenyl)-7-(4-(trifluoromethyl)phenyl)-2-naphthoic acid] came in with an IC50 of 0.0315 ± 0.0042 µM. With `O=C(O)c1cc(-c2ccc(C34CCN(CC3)CC4)cc2)c2ccc(-c3ccc(C(F)(F)F)cc3)cc2c1` [Compound 4], the “Simulated intestinal fluid (% remaining at 120 min)” value in series [1] is 99.7%. Besides, the “Simulated gastric fluid (% remaining at 120 min)” value in series [2] is reported as 74.2%. Besides, the IC50 is 8.69 µM on CYP1A2, 3.29 µM at CYP3A4 and 16.4 µM at hERG. The “Plasma stability (% remaining at 120 min)” value in series [3] is reported as 79.9%. Consider `O=C(O)c1cc(-c2ccc(-c3nn[nH]n3)cc2)cc(-n2cc(-c3ccc(C(F)(F)F)cc3)nn2)c1` [Compound 31, 4′-(2H-Tetrazol-5-yl)-5-(4-(4-(trifluoromethyl)phenyl)-1H-1,2,3-triazol-1-yl)-[1,1′-biphenyl]-3-carboxylic acid], for which, at hP2Y14R (setting [4]), the IC50 was found to be 0.895 ± 0.122 µM.

For `O=C(O)c1cc(-c2ccc(C3CCNCC3)cc2)nc(-n2cc(-c3ccc(C(F)(F)F)cc3)nn2)c1` [Compound 35, 2-(4-(Piperidin-4-yl)phenyl)-6-(4-(4-(trifluoromethyl)phenyl)-1H-1,2,3-triazol-1-yl)isonicotinic acid], at hP2Y14R (setting [4]), the IC50 was 4.9 ± 0.54 µM. Still for that read-out and setting: the value for `O=C(O)c1cc(-n2cc(-c3ccc(C(F)(F)F)cc3)nn2)cc(-c2ccc(C3CCNCC3)cc2)n1` [Compound 36, 6-(4-(Piperidin-4-yl)phenyl)-4-(4-(4-(trifluoromethyl)phenyl)-1H-1,2,3-triazol-1-yl)picolinic acid] was 2.92 ± 0.31 µM. In the case of `O=C(O)c1cc(-c2ccc(C3=CC4CCC(C3)N4)cc2)c2ccc(-c3ccc(C(F)(F)F)cc3)cc2c1` (centres unmarked) [Compound 128, 4-(4-(8-Azabicyclo[3.2.1]oct-2-en-3-yl)phenyl)-7-(4-(trifluoromethyl)phenyl)-2-naphthoic acid], the IC50 on hP2Y14R (Table 2, whole hP2Y14R-CHO cells, 20 nM fluorescent antagonist 3, mean+SEM, n = 3-6, read-out: IC50) came to 0.0349 ± 0.0038 µM.
